## scFv variants of Ab-95 (light chain) against a SARS-CoV-2 spike peptide

Values reported by Engelhart et al. 2022, doi:10.1038/s41597-022-01779-4 (FLAb copy).

All variants were tested on one target, the spike HR2 peptide PDVDLGDISGINAS (SARS-CoV-2).

Parent scFv Ab-95: VH joined to VL by the linker GGGGSGGGGSGGGGS. Changes lie in the light chain CDRs alone.
VH: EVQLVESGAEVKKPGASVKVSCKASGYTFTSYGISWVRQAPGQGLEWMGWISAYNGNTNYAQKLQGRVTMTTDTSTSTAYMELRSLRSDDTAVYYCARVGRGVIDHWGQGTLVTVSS
VL: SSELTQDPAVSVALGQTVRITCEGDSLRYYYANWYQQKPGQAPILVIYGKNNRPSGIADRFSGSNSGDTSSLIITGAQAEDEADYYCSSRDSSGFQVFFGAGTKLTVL

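The starting antibody came from a phage panning campaign against this peptide. Variants in AAYL52 differ from the parent at up to three CDR positions; double and triple changes were sampled at random. AlphaSeq pools MATa yeast showing the antibodies with MATalpha yeast showing the peptide. Binding brings cells together so that they mate, and sequencing counts the barcode pairs among the diploids. A regression on co-assayed BCL2-family reference pairs converts the normalised counts of each replicate to an apparent Kd. Mating was done three times.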

Changes read parent residue, position, new residue, counted from the first residue of the VL shown. Each Kd is an estimate from the mating assay, the geometric mean of the replicates in which the pair was seen; lower is stronger. An entry "nd" has no value in the source: the pair was not observed among the diploids in any replicate. This suggests poor binding but is not conclusive. Parent in this assay: reference entry 200 nM, copy in this library 180 nM. As a blank, each scFv also met three strains without target: over library AAYL52, 28% of these pairings were detected, typically at 8.2 µM and seldom below 800 nM.

changes	apparent Kd	seen in
R28K S55T G94F	290 nM	3/3
S88Q S89Q F95P	nd	0/3
L27P Y31K D91W	2.5 µM	3/3
A32Y N52A	27 µM	2/3
S26R N33W S93G	8.6 µM	2/3
G49P S88C S92N	1.1 µM	1/3
D25A S26N S89L	nd	0/3
Y31L K50I Q96A	290 nM	3/3
D25T S92N F95E	770 nM	3/3
L27I A32K Q96W	3.5 µM	1/3
R28N S55K D91R	1.6 µM	2/3
E23C D25M Q96L	1.9 µM	3/3
F95S Q96F	2.7 µM	3/3
G24F S26M N51D	32 nM	3/3
N52F R53Y S88T	180 µM	1/3
R28D Y31D P54S	88 nM	3/3
L27C S55M S93D	30 µM	1/3
L27A Y29F N51T	6.9 µM	3/3
R53N S55Q S93F	460 nM	2/3
N51Q N52H S92N	20 µM	1/3
D25Q S89G G94D	670 nM	3/3
Y29C A32S N52G	7.1 µM	1/3
Y30H N33H Q96V	nd	0/3
G24I R53K	500 nM	1/3
D25G N52E G94W	76 nM	3/3
N51W S92R	1.9 µM	3/3
G24I S26Q R90C	300 nM	1/3
S26A K50A S93A	260 nM	3/3
P54V S55Q G94N	260 nM	3/3

Continued, with the values leading:

apparent Kd	seen in	changes
130 nM	3/3	E23W N33M S88M
380 nM	3/3	R28K Y30K R53M
900 nM	3/3	S88W Q96G F98D
53 nM	3/3	E23T Y31L S92T
240 nM	3/3	Y30E A32H N52Q
20 µM	2/3	K50C N52Y R53T
9.0 µM	2/3	G24K D91S
1.8 µM	1/3	S89D S92A V97K
24 µM	3/3	K50S N52W S89M
21 µM	1/3	G24V N51C F95N
2.9 µM	3/3	Y30S D91Y
nd	0/3	G49N R90T Q96D
130 µM	3/3	D91V G94I Q96H
58 µM	1/3	A32H S55C S92N
3.9 µM	3/3	E23W K50P G94S
11 µM	2/3	S26W Y31N S88W
4.5 µM	3/3	K50W S89G F95C
2.7 µM	3/3	S26A S93V F98I
550 nM	3/3	A32V V97R F98V
33 µM	1/3	N51F P54S F98T
2.3 µM	1/3	E23R G49C G94M
590 nM	3/3	S26H Y31C P54I
nd	0/3	D25C S93I F98A
770 nM	3/3	S26T Y31C S88M
11 µM	2/3	N51I S88K S92P
5.7 µM	3/3	R53K P54N D91Y
3.6 µM	3/3	S26N L27N Q96L
11 µM	2/3	L27T Y30D S88W
470 nM	3/3	R90D D91Q

For reference, 6 entries of the list once more:

{"changes": "K50C N52Y R53T", "apparent Kd": "20 µM", "seen in": "2/3"}
{"changes": "A32V V97R F98V", "apparent Kd": "550 nM", "seen in": "3/3"}
{"changes": "G24I R53K", "apparent Kd": "500 nM", "seen in": "1/3"}
{"changes": "G24K D91S", "apparent Kd": "9.0 µM", "seen in": "2/3"}
{"changes": "D25G N52E G94W", "apparent Kd": "76 nM", "seen in": "3/3"}
{"changes": "R28K S55T G94F", "apparent Kd": "290 nM", "seen in": "3/3"}